# Yeast mating assay 2: variants of the scFv Ab-95

Values reported by Engelhart et al. 2022, doi:10.1038/s41597-022-01779-4 (FLAb copy).

Target: peptide PDVDLGDISGINAS, taken from heptad repeat 2 (HR2) of SARS-CoV-2 spike.

The variants keep the heavy chain, the linker and the frameworks of Ab-95 (scFv order VH, the linker GGGGSGGGGSGGGGS, VL).
VH: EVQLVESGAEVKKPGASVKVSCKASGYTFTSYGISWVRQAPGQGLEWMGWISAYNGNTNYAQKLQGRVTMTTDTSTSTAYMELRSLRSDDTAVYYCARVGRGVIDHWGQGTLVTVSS
VL: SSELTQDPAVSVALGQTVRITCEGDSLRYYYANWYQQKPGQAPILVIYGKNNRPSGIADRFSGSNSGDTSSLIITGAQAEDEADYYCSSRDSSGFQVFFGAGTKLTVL

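The parent was found by panning a naive human phage display library on the peptide. The library (AAYL52) carries one to three amino acid substitutions per variant, with no insertions or deletions. In AlphaSeq, yeast of one mating type display the scFv and yeast of the other type display the target. Binding brings cells together so that they mate, and sequencing counts the barcode pairs among the diploids. A regression on co-assayed BCL2-family reference pairs converts the normalised counts of each replicate to an apparent Kd. Mating was done three times.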

The parent's light chain CDRs are EGDSLRYYYAN, GKNNRPS, SSRDSSGFQVF; each variant's own CDRs replace them letter for letter.
Each Kd is an estimate from the mating assay, the geometric mean of the replicates in which the pair was seen; lower is stronger.
A pair that was not seen in any replicate is written "not detected"; this usually means weak binding, but a binder can also be missed.
Nonspecific signal, from three strains lacking the peptide, appeared in 28% of pairings of library AAYL52, centred on 8.2 µM (5% of these signals below 800 nM); values are not corrected for it.
For reference, the parent read 200 nM as the reference entry and 180 nM as a member of this library.

CDR-L1,CDR-L2,CDR-L3,Kd,detected
EGDSLRYYYAN,GLNNRPP,SSRDFSGFQVF,130 nM,3/3
EGDSLRYYYAN,GKFNAPS,SSRDSSGFQVF,4.1 µM,3/3
EGDSRRYYYAN,GKNNRWS,SSRDSSGFQVQ,2.9 µM,1/3
EGDVLRYYYAN,GKNNRPS,SSRDSSEFQVF,6.3 µM,3/3
EGDSLRYYYTN,GKNNQPS,SSRDSSGFQCF,76 µM,1/3
KGDSLRYYYAN,QKNNRPS,QSRDSSGFQVF,2.6 µM,3/3
EGDSLEYYYAN,GKNNRPS,SCRDSSWFQVF,560 nM,3/3
EGDSLRYYYDN,GKNNRPS,SPRDNSGFQVF,350 µM,1/3
EGDSLRYYYAN,GKYNRPE,SFRDSSGFQVF,6.5 µM,3/3
EIDSLRYYYAN,WKNNRPS,SSRDSSWFQVF,62 µM,2/3
EGDSLRYYYSY,GKNNRPS,SSRDSSFFQVF,1.6 µM,1/3
AGDSLRYYYAN,GKNNRPR,SSRDSSGFQPF,520 nM,2/3
EGDSLRYYYAT,GKNNRPS,ESRDSSGFHVF,720 nM,1/3
EGDSLRYYYAN,GKNNRPS,SSRFGSWFQVF,430 nM,3/3
SGDSLRYYYAN,GKNNRPS,GSRDSSGFQVM,230 nM,3/3
EYDSLRYYYAN,GKNNRPS,LSRDSSWFQVF,110 nM,1/3
EGDRLRYYYAN,GKNNRPS,SSRDPSGFQVW,3.5 µM,2/3
EGDSWRYYYAN,GKNNRPS,HSRDSSKFQVF,2.1 µM,3/3
DGDSLRYYYQP,GKNNRPS,SSRDSSGFQVF,6.6 µM,3/3
IGDSLRYYYHN,GKNDRPS,SSRDSSGFQVF,not detected,0/3
EPDSLRYYYAV,GKNNRPT,SSRDSSGFQVF,240 µM,2/3
NGDSLRYYYAD,GKLNRPS,SSRDSSGFQVF,12 µM,1/3
EGQSLRYYYAN,GKNNRPS,SMRDDSGFQVF,3.9 µM,3/3
EGDSLRYYYAN,GKNNRPS,SSADSSGKQSF,1.4 µM,3/3
EGDSLRYYYAN,GKNNRPS,SSRDGSGFQVH,350 nM,3/3
EGDSLRYYYAN,GKQNRPP,SSWDSSGFQVF,2.0 µM,1/3
AGDSLRYYYAN,GKNNRMS,SSRDSSGFQVF,67 nM,3/3
EGDSLRYYYVC,GKNNRPH,SSRDSSGFQVF,5.1 µM,1/3
EGDSLIYYYAN,GKNSRPS,SSFDSSGFQVF,18 µM,1/3
EDDSLRYYYAN,GKNNCPS,SSRDSSNFQVF,not detected,0/3
EGDSLRYYYAN,GCNNRPS,SSRDWSGFLVF,3.2 µM,3/3
EGDSLRYMYAN,GENNRPK,SSRDSSGFQVF,49 nM,3/3
EGDSLRYYYAN,GKVNRPS,SDRDNSGFQVF,84 µM,2/3

Continued, with the values leading:

Kd,detected,CDR-L1,CDR-L2,CDR-L3
30 nM,3/3,EGDSLRYQYAN,GKNNRPS,LSRDSSGFAVF
310 nM,3/3,RGDSLRYYYAN,GPNNRPS,SSRLSSGFQVF
21 µM,1/3,EGDSLRYYNAW,WKNNRPS,SSRDSSGFQVF
2.5 µM,3/3,WGDSLRYYYAN,GFNNRPS,SVRDSSGFQVF
27 µM,2/3,EGDSLEYYYAN,GKWNRPS,SSRDSSGGQVF
2.4 µM,3/3,EGQSLMYYYAN,GKNNRPS,GSRDSSGFQVF
3.6 µM,2/3,HQDSLRYYYAN,GKNCRPS,SSRDSSGFQVF
not detected,0/3,EGDSLRYYYAN,YKNHRPS,SSRDSSGRQVF
400 nM,3/3,EGDSLGYYYAN,GGNNRRS,SSRDSSGFQVF
2.0 µM,3/3,EGDSLRYKYLN,GKNNRPS,SSRDSSGFYVF
4.0 µM,1/3,EGDSLRYYYEN,GKNNRPS,SSRDSSSFQVF
780 nM,3/3,EGDSLRYYYAN,GGNNRPS,SSRDSSAFQVF
240 nM,3/3,EGDSPRYYYFN,GKGNRPS,SSRDSSGFQVF
230 nM,3/3,EGVSLRYYYPN,GKNNRPS,SSRDSSGFAVF
120 nM,3/3,EGVSLRYMYAN,GKNNRPL,SSRDSSGFQVF
not detected,0/3,EGDSLRYYYAK,GKNNRPS,DSRDSSVFQVF
100 µM,2/3,EQDSLRYYYAN,GKNNLPS,SSRRSSGFQVF
2.1 µM,2/3,EIDSLRCYYAN,GKNNRPS,SSRSSSGFQVF
92 µM,1/3,ECDSLRYYYAN,GKNNRPS,FSRDCSGFQVF
9.0 µM,1/3,EGDSLRYYYAN,GINARPS,SSRDSSGFVVF
not detected,0/3,EGDSLLEYYAN,GKNNRPS,SSRDSSGFQVP
6.7 µM,2/3,EGDSLRFLYAN,GKMNRPS,SSRDSSGFQVF
38 µM,2/3,YGDSLRYYYAC,GKVNRPS,SSRDSSGFQVF
25 µM,2/3,EGDSYRYYHAN,GKNNRPS,SSRDSSGFQKF
290 nM,3/3,GGRSLRYYYAN,GKNNRPS,SGRDSSGFQVF
160 nM,3/3,EGASLRYYYAN,GKNNRPS,SSRDYSGFQVF
66 µM,2/3,EGDSLRYYYAN,GKPNRPR,SSRDSSSFQVF
6.1 µM,1/3,EGDSLRYYYAR,GKNNWPS,SVRDSSGFQVF
6.4 µM,3/3,EGDSLRYYYAN,GKNNRPA,SMRDSSGFQVR
63 µM,2/3,EEDSLRYYYAN,GTNNRPS,SSRCSSGFQVF
2.1 µM,1/3,EGDSLRYYYAN,GKNNRPH,SSRDSSTFQQF
35 µM,1/3,EGDYLDYYYAN,GKNNRPS,SSRDSSGFQVS
37 µM,1/3,EGDSLRYYYEN,GKSNRPS,SSRDSSGFQEF

From the list, the first 5 with no signal in any replicate:

CDR-L1,CDR-L2,CDR-L3,Kd,detected
IGDSLRYYYHN,GKNDRPS,SSRDSSGFQVF,not detected,0/3
EDDSLRYYYAN,GKNNCPS,SSRDSSNFQVF,not detected,0/3
EGDSLRYYYAN,YKNHRPS,SSRDSSGRQVF,not detected,0/3
EGDSLRYYYAK,GKNNRPS,DSRDSSVFQVF,not detected,0/3
EGDSLLEYYAN,GKNNRPS,SSRDSSGFQVP,not detected,0/3